# Binding of CDR-mutated scFvs to a peptide of the spike HR2 region

Target peptide (SARS-CoV-2 spike, HR2 region): PDVDLGDISGINAS

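Phage display of a naive human antibody library on the peptide gave the parent. AAYL49 was designed without a model: most single CDR substitutions and a random sample of double and triple ones. The assay is AlphaSeq: two haploid yeast populations carry antibody and antigen on their surface. Mating (16 h, 30 °C) was followed by selection of diploids and sequencing of their barcodes. Read counts were normalised to the haploid input and turned into Kd by a linear fit to BCL2-family pairs of known affinity, for each replicate. There are three technical replicates.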

Ab-14 is the parent antibody, in scFv form: VH, then three GGGGS repeats, then VL. The light chain is unchanged in all variants.
VH: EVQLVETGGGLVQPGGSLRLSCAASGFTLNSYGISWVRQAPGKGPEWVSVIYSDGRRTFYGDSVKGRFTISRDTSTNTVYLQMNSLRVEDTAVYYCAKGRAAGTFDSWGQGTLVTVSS
VL: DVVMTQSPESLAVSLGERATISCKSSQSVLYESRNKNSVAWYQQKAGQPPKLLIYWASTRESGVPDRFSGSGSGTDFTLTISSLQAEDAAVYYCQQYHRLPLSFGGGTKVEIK

Substitutions are numbered in sequence along the VH above, starting at 1 (not Kabat).
Values are log10 of the apparent Kd in nM; lower means stronger binding.
An entry "n.d." has no value in the source: the pair was not observed among the diploids in that replicate. This suggests poor binding but is not conclusive.
For reference, the parent read 0.65 as the reference entry and 4.11 (one replicate of three) as a member of this library.

changes,"replicates, log10 nM",signal with controls
L29Y+G61I+R100P,n.d. n.d. n.d.,0/9
T28L+G55I+R56I,n.d. 3.50 5.64,1/9 (2.96)
Y60Q+G61Q+S107K,3.04 2.51 1.98,0/9
A101H,1.33 1.36 1.29,3/9 (3.97)
G61A+S63Y+D106S,2.90 2.62 3.19,3/9 (4.63)
G55Q+S107K,n.d. n.d. n.d.,1/9 (4.06)
G26F+N30E+D62I,n.d. n.d. n.d.,0/9
Y32P+I34P+G61D,n.d. n.d. n.d.,1/9 (3.08)
Y32W+G33A+G103R,n.d. n.d. n.d.,1/9 (3.74)
S53K+T58H+S107T,n.d. 4.08 5.81,2/9 (3.37)
S35W+R57F+D62R,n.d. n.d. n.d.,1/9 (3.75)
T28D+Y52S+G61E,2.74 3.10 3.44,4/9 (4.32)
R56D+D106P,3.81 2.99 3.74,5/9 (3.91)
Y52I+Y60W+G103K,n.d. n.d. n.d.,1/9 (4.13)
G26R+S53F+R57F,5.53 n.d. n.d.,3/9 (3.24)
Y52H+G103K+D106P,3.10 n.d. n.d.,1/9 (3.97)
I34F+I51T,n.d. n.d. n.d.,2/9 (4.34)
I51A+S53Y+A102E,n.d. 3.77 n.d.,2/9 (4.15)
T58P+S63V+D106R,n.d. n.d. n.d.,0/9
G99I+A101R+S107R,n.d. n.d. n.d.,0/9
D54L+R100N+G103N,n.d. n.d. n.d.,0/9
S31I+Y52G,n.d. n.d. n.d.,0/9
S35R+S63V+T104S,n.d. n.d. n.d.,0/9
G55I+R56F+G103S,4.31 n.d. 4.42,2/9 (4.16)
T28Y+V50S+A101L,n.d. 4.16 n.d.,0/9
D62S+A102Q+F105H,1.72 2.07 2.69,1/9 (3.94)
S63N+R100S+T104P,n.d. n.d. n.d.,0/9
S31P+D54P+F59T,n.d. 3.14 n.d.,1/9 (2.40)
Y52R+D54Q+A101W,n.d. n.d. n.d.,2/9 (3.35)
G26I+T58I+G103D,n.d. n.d. 3.76,0/9
T28L+V50Y+D54F,4.17 n.d. 3.48,1/9 (4.41)
S35M+Y52M+D54H,5.05 4.13 4.95,4/9 (4.57)
N30Q+A101R+T104V,1.07 1.24 1.35,2/9 (2.94)
D54T+G61Q+G99A,5.15 n.d. n.d.,1/9 (2.28)
G26Y+D62A,n.d. n.d. 3.49,0/9
F27S+Y60G+G103T,n.d. n.d. n.d.,0/9
D62R+S63C+G99V,4.75 n.d. n.d.,1/9 (4.70)
Y32S+G99H+R100Q,n.d. n.d. n.d.,0/9
I34W+V50R+G99I,n.d. n.d. 4.40,2/9 (3.19)
G26W+S35F+D62L,n.d. n.d. n.d.,0/9
I34G+S53T+D54C,n.d. n.d. n.d.,1/9 (4.12)

The first 6 entries again:

| changes | replicates, log10 nM | signal with controls |
|---|---|---|
| L29Y+G61I+R100P | n.d. n.d. n.d. | 0/9 |
| T28L+G55I+R56I | n.d. 3.50 5.64 | 1/9 (2.96) |
| Y60Q+G61Q+S107K | 3.04 2.51 1.98 | 0/9 |
| A101H | 1.33 1.36 1.29 | 3/9 (3.97) |
| G61A+S63Y+D106S | 2.90 2.62 3.19 | 3/9 (4.63) |
| G55Q+S107K | n.d. n.d. n.d. | 1/9 (4.06) |

Nonspecific signal, from three strains lacking the peptide, appeared in 15% of pairings of library AAYL49, centred on 4.06 (5% of these signals below 2.83); values are not corrected for it. Also given: how often the same scFv was detected with the empty control strains, with their mean in brackets.

The measurements come from Engelhart et al. 2022 (doi:10.1038/s41597-022-01779-4) through the FLAb antibody collection.